Tests used:
[1] = molecular target: human platelet glycoprotein Ibα (human (endogenous in platelets)) (UniProt P07359); experiment: co-IP; GPIbα precipitated with an anti-GPIbα antibody on protein G magnetic beads from lysates of washed human platelets, resting or activated with VWF/ristocetin (0.4 mg/mL), with DMSO or LatA (15 µM); PHEM buffer, 1% Triton X-100, 0.5% N-octylglucoside, 2 µM phalloidin; washes with 500 mM NaCl; blots for β-actin and MICAL1
[2] = molecular target: mouse platelet glycoprotein Ibα (mouse (endogenous in platelets)) (UniProt O35930); experiment: co-IP; GPIbα precipitated with anti-GPIbα antibodies (Xia.G5/Xia.G7) from lysates of shear-activated mouse platelets scraped from a recombinant mouse VWF matrix after blood perfusion at 1500 s-1; PHEM 1% Triton X-100, 2 µM phalloidin; Mical1+/+ and Mical1-/- platelets, Mical1-/- with DMSO or LatA (125 nM); blot for β-actin

Substance	fold increase of β-actin co-precipitated with GPIbα, VWF/ristocetin-activated against resting platelets [1]	fold increase in β-actin co-precipitated with GPIbα, Mical1-/- against control platelets, after flow at 1500 s-1 [2]
human β-actin (F-actin) (from UniProt P60709 1-375) (natural protein)	20 fold	
mouse β-actin (F-actin) (from UniProt P60710 1-375) (natural protein)		> 3 fold

From article PMC12335590
